Experimental findings from publication PMC10914727 (Nature Communications, 2024) are described below.

Protein sequences, listed by entry. Tags and fused reporters are not part of them.
UniProt Q9WV18, whole entry: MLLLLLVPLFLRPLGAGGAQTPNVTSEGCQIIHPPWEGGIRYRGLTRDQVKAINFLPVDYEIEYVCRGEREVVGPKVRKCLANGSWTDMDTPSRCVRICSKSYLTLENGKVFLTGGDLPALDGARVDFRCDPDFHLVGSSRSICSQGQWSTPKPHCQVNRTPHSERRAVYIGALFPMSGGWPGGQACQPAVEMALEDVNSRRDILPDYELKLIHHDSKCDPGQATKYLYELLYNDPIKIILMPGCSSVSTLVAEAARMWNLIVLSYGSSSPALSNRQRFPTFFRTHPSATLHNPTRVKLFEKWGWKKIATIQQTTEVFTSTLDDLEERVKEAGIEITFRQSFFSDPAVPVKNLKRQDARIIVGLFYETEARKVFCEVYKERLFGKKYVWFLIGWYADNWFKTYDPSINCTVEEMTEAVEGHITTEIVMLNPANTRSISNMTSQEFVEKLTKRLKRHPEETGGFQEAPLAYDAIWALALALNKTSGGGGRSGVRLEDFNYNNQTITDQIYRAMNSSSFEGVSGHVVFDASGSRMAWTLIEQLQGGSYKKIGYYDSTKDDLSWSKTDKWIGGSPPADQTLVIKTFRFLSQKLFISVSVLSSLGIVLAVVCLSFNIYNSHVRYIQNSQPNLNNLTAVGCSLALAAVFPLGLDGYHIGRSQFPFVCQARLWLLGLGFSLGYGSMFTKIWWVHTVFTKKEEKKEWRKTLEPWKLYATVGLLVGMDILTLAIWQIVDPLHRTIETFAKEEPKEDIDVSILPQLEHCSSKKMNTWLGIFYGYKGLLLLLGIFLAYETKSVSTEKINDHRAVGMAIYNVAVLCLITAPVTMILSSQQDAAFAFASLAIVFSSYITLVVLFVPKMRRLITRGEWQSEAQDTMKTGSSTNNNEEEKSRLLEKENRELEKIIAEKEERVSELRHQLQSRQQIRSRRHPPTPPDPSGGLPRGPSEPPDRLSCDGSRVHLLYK

Read-outs that look alike come from different tables or passages of the source.

Common to all, as to assay: cell-based
Test [1] addresses T1, endogenous GABAB receptor in CGNs (Mus musculus, UniProt Q9WV18).
T1 construct: gene Gabbr1; native receptor, primary cerebellar granule neurons
Further details: species or system primary cerebellar granule neurons (CGNs); BRET G protein sensor (Galpha-Nluc / Venus-Ggamma2), agonist-induced change of BRET. The source says:
We have further validated these G protein sensors by measuring the potency of different orthosteric GABAB receptor ligands (Fig. 3a) in both CGNs and HEK293 cells. […] Similar results were obtained in the hippocampal neurons and cortical neurons (Supplementary Fig. 4b–d and Supplementary Table 1). […] Dotted line is the correlation of pEC50 determined with HEK293 cells. […] Data are mean ± SEM from at least three biologically independent experiments each performed in triplicate and analysed using one-way ANOVA with a Dunnett’s post-hoc multiple comparison test to determine significance. […] The raw data and p-values are available in source data provided as a Source Data file. Fig. 1 Design and validation of the Gi/o protein sensors in neurons. a Scheme of the BRET-based sensors to detect the activity of the endogenous GPCR in neurons. b Scheme of the Gαi/o^Nluc and ^VenusGγ2 constructs co-transfected in the neurons. Sequence of the linker (L) before and after Nluc was indicated. […] The data are representative of BRET ratios from five independent experiments. e Representative fluorescent images of Venus and DAPI in CGNs transfected with GαoA^Nluc and ^VenusGγ2 or in HEK293 cells transfected with GαoA^Nluc, Gβ1 and ^VenusGγ2 from three independent experiments. […] The data are representative of the mean ± SEM of BRET ratios from three independent experiments. […]

The target of test [2] is T2, endogenous GABAB receptor in hippocampal neurons (Mus musculus, UniProt Q9WV18).
T2 construct: gene Gabbr1; native receptor, primary hippocampal neurons
The arrangement: species or system primary hippocampal neurons; BRET G protein sensor (Galpha-Nluc / Venus-Ggamma2), agonist-induced change of BRET. As to conditions: read-out: pEC50 hippocampal neurons (converted). An excerpt:
We have further validated these G protein sensors by measuring the potency of different orthosteric GABAB receptor ligands (Fig. 3a) in both CGNs and HEK293 cells. […] Similar results were obtained in the hippocampal neurons and cortical neurons (Supplementary Fig. 4b–d and Supplementary Table 1). […] Sequence of the linker (L) before and after Nluc was indicated. […] The data are representative of BRET ratios from five independent experiments. e Representative fluorescent images of Venus and DAPI in CGNs transfected with GαoA^Nluc and ^VenusGγ2 or in HEK293 cells transfected with GαoA^Nluc, Gβ1 and ^VenusGγ2 from three independent experiments. […] The data are representative of the mean ± SEM of BRET ratios from three independent experiments. The raw data and p-values are available in source data provided as a Source Data file.

Test [3] addresses T3, endogenous GABAB receptor in cortical neurons (Mus musculus, UniProt Q9WV18).
T3 construct: gene Gabbr1; native receptor, primary cortical neurons
The arrangement: species or system primary cortical neurons. The following applies: pEC50 cortical neurons. The source says: Sequence of the linker (L) before and after Nluc was indicated. […] The raw data and p-values are available in source data provided as a Source Data file.

For the molecule `NCCCC(=O)O` [GABA], the EC50 was 9.33 µM in test [1] (Gi1 sensor); 8.51 µM in test [1] (GoA sensor); 3.31 µM in test [2] (Gi1 sensor); 7.08 µM in test [2] (GoA sensor); 4.17 µM in test [3].
